Target: T1, MKLP-2 (RabK6) (Homo sapiens, UniProt O95235, S2A)
T1 construct: Expression clones for MKLP-21-519 (coding for residues 1 to 519) were obtained as follows; His-tag; made in house; host or cells: E. coli BL21(DE3)
T1 sequence (O95235 1-519 S2A limits assumed): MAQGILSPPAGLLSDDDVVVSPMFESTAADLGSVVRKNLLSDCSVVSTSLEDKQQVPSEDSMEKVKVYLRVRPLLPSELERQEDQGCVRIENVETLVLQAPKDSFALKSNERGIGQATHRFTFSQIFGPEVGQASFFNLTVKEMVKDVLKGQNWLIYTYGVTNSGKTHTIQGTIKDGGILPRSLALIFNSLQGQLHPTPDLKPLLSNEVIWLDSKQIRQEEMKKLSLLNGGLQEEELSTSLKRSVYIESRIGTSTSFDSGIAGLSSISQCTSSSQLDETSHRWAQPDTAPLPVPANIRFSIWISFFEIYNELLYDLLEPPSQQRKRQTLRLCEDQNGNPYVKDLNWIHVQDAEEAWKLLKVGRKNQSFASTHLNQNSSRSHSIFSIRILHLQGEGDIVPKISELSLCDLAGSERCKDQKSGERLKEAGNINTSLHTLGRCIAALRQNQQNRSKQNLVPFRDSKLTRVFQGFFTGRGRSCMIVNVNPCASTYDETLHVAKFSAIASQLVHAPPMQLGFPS
Assay: biochemical
Procedure: All experiments were performed at room temperature using a 96-well Sunrise photometer (Tecan, Maennedorf, Switzerland) at a final volume of 100 μl per well.
Steady-state ATPase rates were measured using the pyruvate kinase/lactate dehydrogenase-linked assay in buffer A25A (25 mM potassium ACES, pH 6.9, 2 mM MgAc2, 2 mM Na-EGTA, 0.1 mM Na-EDTA, 1 mM β-mercaptoethanol) supplemented with 1 mM MgATP; 2 mM PEP; 0.25 mM NADH; 3-10 μg/ml pyruvate kinase; 3 μg/ml lactate dehydrogenase and 8 μM taxol.
The data were analyzed using Kaleidagraph 3.0 (Synergy Software, Reading, Pa.) and Microsoft Excel to obtain the kinetic variables.
When necessary, the inhibitor concentrations were adapted depending on the initial IC50 value. Experiments were performed in triplicate and averaged data points are shown with error bars±SD.

Question: Which IC50 does the source give for `N#C/C(=C\c1cccnc1)c1c[nH]c2ccc(Br)cc12` [Example 37, (Z)-2-(5-bromo-1H-indol-3-yl)-3-pyridin-3-yl-acrylonitrile] here?
Answer: 10 to 20 µM

Question: `N#C/C(=C\c1cccnc1)c1c[nH]c2ccc(N)cc12` [Example 40, (Z)-2-(5-amino-1H-indol-3-yl)-3-pyridin-3-yl-acrylonitrile] was tested. Which IC50 did it give?
Answer: < 5 µM

Question: How did the IC50 turn out when `C(=C\c1c[nH]c2ccccc12)/c1cccnc1` [Example 57, (E)-3-(2-pyridin-3-yl-vinyl)-1H-indole] was run?
Answer: 5 to 10 µM
